The assay has as its system Meth A tumors. The assay is described as follows: Necrotizing activity of human TNF on Meth A tumors in vivo. Also noted: species or system BALB/c mice. Conditions: Group 1: TNF 1 μg/mouse intravenously, Day 8. On the procedure:
Generally, on Day 0, cutaneous Meth A tumors were produced on the abdominal wall of fifteen BALB/c mice by intradermal injection of 2×20^5 Meth A tumor cells.
On Day 8, tumor necrosis was measured with the following results: […]

Turning to “TNF: recombinant human tumor necrosis factor provided by Synergen Inc.”, the “% of necrosis” value is listed as 100 (5/5) %.

For the origin of these results see US6858402B2 (The Regents of the University of California, priority 1996, dated 2005).
